Patent US20260382570A1, “DOSING OF OREXIN TYPE 2 RECEPTOR AGONISTS” (published 2026)

Experiments:
[1] = Plasma concentration time-course after single dose in NT1 model mice; conditions: for Cmax: mice
[2] = test system: OX2R; assay: EEG analysis of sleep stages during infusion by osmotic pump in orexin-tTA;TetO DTA mice
[3] = test system: OX2R; assay: EEG/EMG recording of sleep/wakefulness after single dose in NT1 model mice (orexin-tTA;TetO DTA); conditions: ZT5
[4] = test system: OX2R; assay: DREM (direct transitions from wakefulness to REM sleep, murine analog of cataplexy) during infusion by osmotic pump
[5] = test system: OX2R; conditions: OX2R-expressed recombinant cells; cited from earlier work
[6] = test system: OX2R; conditions: OX2R-expressed recombinant cells; cited from earlier work; remark: listed apart in the source
[7] = Plasma concentration during infusion by osmotic pump
[8] = Plasma concentration time-course in cynomolgus monkeys
[9] = test system: OX2R; assay: EEG/EMG recording of sleep/wakefulness in cynomolgus monkeys; conditions: ZT12
[10] = test system: OX2R; conditions: cited from earlier work
[11] = 11.2 mg, individuals with NT1; cited from earlier work
[12] = test system: OX2R; assay: Maintenance of Wakefulness Test (MWT40) in individuals with NT1, Phase I single rising dose study; conditions: around one-third of the arousal-promoting concentration (20 ng/mL)
[13] = test system: OX2R; assay: EEG/EMG recording of wakefulness with plasma concentration, determination of arousal-promoting plasma concentration in NT1 model mice (orexin/ataxin-3); conditions: for duration of potent arousal (maintenance of wakefulness for more than 75% in 10 min-bins): 1 mg/kg s.c.
[14] = at or below maximum non-awakening plasma concentration, day 28
[15] = at or below maximum non-awakening plasma concentration, day 28, vs vehicle-treated
[16] = at or below maximum non-awakening plasma concentration, day 14
[17] = at or below maximum non-awakening plasma concentration, day 14, vs vehicle-treated
[18] = Dose 1 (around 90 ng/mL) and Dose 2 (around 320 ng/mL), day 14, vs vehicle-treated

| Structure (SMILES) | total wakefulness time during the dark/light phase [2, 14] | duration of NREM sleep (episode) during the light phase [2, 15] | duration of wakefulness (episode) during the dark phase [2, 15] | number of episodes of NREM sleep during the light phase [2, 15] | number of episodes of wakefulness during the dark phase [2, 15] | maximum non-awakening dose ([3]; oral) | mean number of DREM episodes during the dark and light phase [4, 15] | calcium mobilization [5] | recruitment of β-arrestins [6] | total wakefulness time during the dark/light phase [2, 16] | duration of NREM sleep (episode) during the light phase [2, 17] | duration of wakefulness (episode) during the dark phase [2, 17] | number of episodes of NREM sleep during the light phase [2, 17] | number of episodes of wakefulness during the dark phase [2, 17] | maximum non-awakening dose ([3]; subcutaneous) | mean number of DREM episodes during the dark and light phase [4, 17] | Cmax ([1]; 0.03 mg/kg, oral) | other results |
| --- | --- | --- | --- | --- | --- | --- | --- | --- | --- | --- | --- | --- | --- | --- | --- | --- | --- | --- |
| CC(C)(O)C(=O)N1CC(F)(F)[C@H](NS(C)(=O)=O)[C@@H]1Cc1cccc(-c2cc(F)cc(F)c2)c1F | did not increase | increased | increased | significantly reduced | significantly reduced | 0.1 mg/kg | significantly fewer |  |  |  |  |  |  |  |  |  |  | Cmax ([1]; 0.1 mg/kg, oral): around 83.7 ng/mL |
| COc1ccc(-c2cccc(C(=O)N(C)C)c2)cc1S(=O)(=O)Nc1cccc(NCCNC(=O)c2ccccc2N(C)C)c1 |  |  |  |  |  |  |  | increase calcium mobilization | promote recruitment of β-arrestins |  |  |  |  |  |  |  |  |  |
| CO[C@@H]1CN(c2ncc(F)cn2)CC[C@@H]1[C@@H]1C[C@H]2CC[C@@H](C1)N2[C@@H](C(N)=O)C1CC1 |  |  |  |  |  |  |  |  |  | did not increase | a trend for increased | a trend for increased | significantly reduced | significantly reduced | 0.03 mg/kg | significantly fewer |  | plasma concentration maintained ([7]; infusion, 3 mg/mL in pump, day 14 after implantation): 2.8 ng/mL; Cmax ([1]; 0.1 mg/kg as printed (blood sampled after oral 0.03 mg/kg)): around 3.3 ng/mL |
| CS(=O)(=O)N[C@H]1CCCN2C(=O)COc3nccnc3[C@H]3CC[C@H](CC3)OC[C@@H]12 |  |  |  |  |  | 0.03 mg/kg |  |  |  | did not increase | increased | increased | significantly reduced | significantly reduced |  | significantly fewer | around 2.9 ng/mL | plasma concentration maintained ([7]; infusion, 1 mg/mL in pump, day 14 after implantation): 1.9 ng/mL |
| CC(C)(O)C(=O)N1CC[C@H](NS(C)(=O)=O)[C@@H]1Cc1cccc(-c2cc(F)cc(F)c2)c1F |  |  |  |  |  |  |  |  |  |  |  |  |  |  |  |  |  | plasma concentration maintained ([7]; Dose 1 (7.5 mg/mL in pump), between 7 and 15 days after implantation): around 90 ng/mL; plasma concentration maintained ([7]; Dose 2 (17.5 mg/mL in pump), between 7 and 15 days after implantation): 320 ng/mL; plasma concentration relative to the maximum non-awakening plasma concentration ([7]; Dose 2, around 320 ng/mL): the same; Tmax (time of Cmax) ([8]; 3 mg/kg oral): around 1 h; Cmax ([8]; 3 mg/kg oral (non-awakening dose)): around 235 ng/mL; plasma concentration at 3.5 h after administration ([8]; 10 mg/kg oral): around 654.7 ng/mL; arousal effect ([9]; 3 mg/kg oral, at and around Cmax and about 1 hour before/after Tmax): did not induce arousal effect; duration of arousal (wakefulness for more than 75% in 1 h-bins) ([9]; 10 mg/kg oral): around 3.5 h; peak plasma concentration ([1]; 1 mg/kg oral (negligible wake-promoting effects)): 371.6 ng/mL; plasma concentration at the last time-point when it produced potent arousal ([1]; 10 mg/kg oral, 110 min after administration): 1128.9 ng/mL; duration of NREM sleep (episode) during the light phase [2, 18]: increased; duration of wakefulness (episode) during the dark phase [2, 18]: increased; number of episodes of NREM sleep during the light phase [2, 18]: significantly reduced; number of episodes of wakefulness during the dark phase [2, 18]: significantly reduced; wake-promoting effects ([3]; 1 mg/kg oral): negligible wake-promoting effects; last time-point of potent arousal after administration ([3]; 10 mg/kg oral): 110 min; minimum effective dose to produce arousal (wakefulness for more than 75% in 10 min-bins) ([3]; oral, doses 1, 3, 10 mg/kg): 10 mg/kg; cataplexy symptoms during the dark and light phase ([4]; doses at or below non-awakening plasma concentration, day 14): improved; mean number of DREM episodes during the dark and light phase ([4]; doses at or below non-awakening plasma concentration, day 14, vs vehicle-treated): significantly fewer |
| COC(=O)N1CCC[C@H](NS(C)(=O)=O)[C@@H]1CO[C@H]1CC[C@@H](c2ccccc2)CC1 | did not increase | increased | increased | significantly reduced | significantly reduced |  | significantly fewer | increase calcium mobilization | promote recruitment of β-arrestins |  |  |  |  |  | 0.03 mg/kg |  | around 7.2 ng/mL | dose producing near complete wakefulness during MWT40 ([10]; individuals with NT1, single dose): ≥ 11.2 mg; arousal-promoting plasma concentration ([10]; individuals with NT1, around average plasma exposure level at 11.2 mg): 20 ng/mL; average plasma exposure level [11]: 20 ng/mL; maximum non-awakening concentration [12]: about 7 ng/mL; duration of potent arousal (maintenance of wakefulness for more than 75% in 10 min-bins) ([13]; dark phase, administered at ZT12): up to 70 min; duration of potent arousal (maintenance of wakefulness for more than 75% in 10 min-bins) ([13]; light phase, administered at ZT5): ≤ 90 min; arousal-promoting concentration (plasma) ([13]; mice, estimated from FIG. 1 and FIG. 2, 1 mg/kg): 20 to 40 ng/mL |
